# Experimental data reported in patent US6037463A, “Enzymatic RNA molecules that cleave mutant N-RAS” (priority 1996, dated 2000).
# Key:
# [1] = tested on: synthetic oligoribonucleotide substrate of 15 nucleotides, mutant N-ras mRNA (codon 13); assay: Kinetics with synthetic substrates (multiple turnover), ribozymes against mutant N-ras; type: biochemical; conditions: Table IB, modifications of MRE763C
# Method: In one investigation, short synthetic oligoribonucleotides of 15 nucleotides chain length served as substrates. Cleavage kinetics of all ribozymes were carried out under Michaelis-Menten conditions. […] Ribozymes RE990 or RE1035 against the wild type mRNA as well as their substrate complexes on the other hand reveal Tm values of approximately 52° C.
# Kinetic constants Km and kcat were determined from Eadie-Hofstee plots carried out with 5'-^32 P-labeled substrate. The RNA substrate was labeled by reaction with T4 polynucleotide kinase and [γ-^32P]-ATP. 5'-end labeled substrate was purified from [γ-^32 P]-ATP with CENTRICON-3 tubes. Ribozyme and substrate were heated separately for 1 min at 75° C. in 50 mM Tris-Cl (pH 7.5). After cooling to 37° C. for 5 min, 100 mM MgCl2 were added to a final concentration of 10 mM, and the solution was incubated for an additional 5 min at 37° C. Multiple turnover reactions were carried out in a volume of 100 μl with concentrations of substrate between 20-500 nM and ribozyme concentrations from 2 to 5 nM in 50 mM Tris-Cl (pH 7.5) and 10 mM MgCl2 at 37° C. Reactions were initiated by addition of ribozyme. The reaction was stopped by mixing the ribozymes with an equal volume of stop solution (8 M urea, 25 mM EDTA). The cleavage reactions were analyzed on 20% denaturing polyacrylamide gels (8 M urea) and scanned on a Molecular Dynamic Phosphorimaging system.
# [2] = tested on: in vitro transcribed mutant N-ras mRNA (codon 13); assay: Kinetics with in vitro transcribed RNA (single-turnover), mutant; type: biochemical; conditions: Table IIC, modifications of MRE763C
# From the text: In a further investigation, RNA containing the mutant or wild type N-ras sequence from transcription initiation site to termination site was synthesized by in vitro transcription. In order to achieve efficient mRNA cleavage, the target sequence of the substrate (NUX-triplet, N=A,G,C,U; X=C,A,U) is not allowed to be double-stranded or part of a stable hairpin. The in vitro transcribed RNA served as substrate for five ribozymes mentioned above. The catalytic efficiency was examined under "single-turnover" conditions to detect the splice products.
# For in vitro transcription, pMS5-NRAS, pMS5A-NRAS and pMS5B-NRAS were linearized by EcoRI digestion, phenol-extracted and ethanol-precipitated. Transcription was carried out in a 100 μl mixture containing 50 ng/μl linearized plasmid DNA, 10 mM DTT, 40 mM Tris-Cl (pH 7.5), 50 mM NaCl, 8 mM MgCl2, 2 mM spermidine, 500 μM rNTP's, 0.8 U/μl RNAse-lnhibitor, 2 μCi/μl [α-^32 P]-ATP and 2.5 U/μl T7 RNA Polymerase. […]
# The cleavage efficiency under "single-turnover" conditions was determined in a volume of 10 μl using 20-1200 nM ribozyme, 50 mM Tris-Cl (pH 7.5) and 10 mM MgCl2. […] The reaction was analyzed on 6% denaturing polyacrylamide gels and scanned on a Molecular Dynamics Phosphor Imager. The single turnover kcat /Km values were determined as described by Heidenreich et al., J. Biol. Chem. 267:1904 (1992).
substance,measurement,setting,value
5'-CCAACACCUGAUGAGCGUUAGCGAAACCUGCU-3' (chemistry not given here),Km,[1],0.072 µM
same,kcat,[1],0.06267 s⁻¹
same,Km,[2],0.071 µM
same,kreact,[2],266 10^-6 s^-1
